Values of other authors in publication PMC8733726, “Dioctanoyl Ultrashort Tetrabasic β-Peptides Sensitize Multidrug-Resistant Gram-Negative Bacteria to Novobiocin and Rifampicin” (Frontiers in Microbiology, 2021).

Settings: ref Chen and Lu, 2020; cited from earlier work

## daptomycin
  In vivo elimination half-life: 8 to 9 h
